This note sets out measurements from patent publication US9097706B2, “Insect-based ex vivo model for testing blood-brain barrier penetration and method for exposing insect brain to chemical compounds” (ENTOMOPHARM APS, priority 2009, dated 2015).

This series has as its system grasshopper BBB (locusta migratoria brain in its cuticle shell). The following applies: 5 min. Here is the method:
1. […] The insects may be obtained from local suppliers or bred in house. The grasshoppers were reared under crowded conditions at 28° C. and a 12:12 dark:light photocycle and fed fresh grass and bran. Before experiments the grasshoppers were fed ecologically cultivated wheat for two weeks. Animals used are adult males (in some experiments females) between two to four weeks after adult emergence. A cut is made through the frontal part of the locust head comprising the most frontal parts including the antennae, the compound eyes, the brain and all neural connections between the brain and the antennae and the eyes. This preparation in its cuticle shell is placed in a well of a microtitre plate containing the test solution. After various times of exposure the preparation is washed in saline and the brain is dissected under microscope with fine forceps. The neural lamella surrounding the brain is removed in saline and the brain is then […] in saline, centrifuged and the supernatant frozen until analyses. Drug concentration is analysed by HPLC, LC/MSMS or other methods.
A cut was made through the frontal part of the head of adult female locusta migratoria. Each brain in its cuticle shell was placed in a 0.12 mg/ml mianserin solution for 5 minutes. The brain was prepared in saline and removed from the cuticle shell and three brains were placed in each test tube containing 100 ul distilled H2O. 200 ul ACN was added to each tube and the tubes were placed in a sonicator and the brains were disintegrated by approximately 5 seconds of sonication. The samples containing the disintegrated brains were centrifuged for 5 minutes (10000 g at 4° C.).
A cut was made through the frontal part of the head of adult female locusta migratoria. Each brain in its cuticle shell was placed in a 0.12 mg/ml mianserin solution for 5 minutes. The brain was prepared in saline and removed from the cuticle shell. The brains were washed in Saline. After wash three brains were placed in each test tube containing 100 ul distilled H2O. 200 ul ACN was added to each tube and the tubes were placed in a sonicator and the brains were disintegrated by approximately 5 seconds of sonication.
A cut was made through the frontal part of the head of adult female locusta migratoria. Each brain in its cuticle shell was placed in a 0.12 mg/ml mianserin solution for 5 minutes. The brain was prepared in saline and removed from the cuticle shell. To stain the neural lamella Evans Blue was added and the neural lamella was removed. Three brains were placed in each test tube containing 100 ul distilled H2O. 200 ul ACN was added to each tube and the tubes were placed in a sonicator and the brains were disintegrated by approximately 5 seconds of sonication.
A cut was made through the frontal part of the head of the adult locusta migratoria. […]

SMILES strings stand for the structures. Like-named read-outs stand apart in the source and are kept apart here.

Consider `C=C[C@H]1C[N@@]2CC[C@H]1C[C@@H]2[C@@H](O)c1ccnc2ccc(OC)cc12` [quinidine], for which the “average concentration in brain supernatant measured by LCMS” value stood at 3 ng/mL (0.001 mg/ml), 11 ng/mL (0.01 mg/ml), 52 ng/mL (0.1 mg/ml) and 684 ng/mL (1 mg/ml).
